# Antibody variant affinities, Ab-14 light chain, assay B

The target is the same throughout: PDVDLGDISGINAS, from the HR2 region of SARS-CoV-2 spike.

Parent: Ab-14, a human scFv built as VH, a 15-residue (Gly4Ser)3 linker, VL. Only the CDRs of the light chain vary.
VH: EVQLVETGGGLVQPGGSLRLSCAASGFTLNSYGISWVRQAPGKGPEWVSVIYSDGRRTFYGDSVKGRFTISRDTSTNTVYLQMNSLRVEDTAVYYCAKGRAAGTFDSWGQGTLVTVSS
VL: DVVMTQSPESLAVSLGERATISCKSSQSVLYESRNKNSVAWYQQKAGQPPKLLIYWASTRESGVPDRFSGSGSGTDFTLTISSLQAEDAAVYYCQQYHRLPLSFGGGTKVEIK

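The starting antibody came from a phage panning campaign against this peptide. Designed CDR sequences, proposed from the first random library and measured here. Their group label is 14L_En_HC (En: ensemble of fine-tuned language models; HC: hill climbing; a sequence that several methods proposed may carry one label only). AlphaSeq pools MATa yeast showing the antibodies with MATalpha yeast showing the peptide. Mating (16 h, 30 °C) was followed by selection of diploids and sequencing of their barcodes. A regression on co-assayed BCL2-family reference pairs converts the normalised counts of each replicate to an apparent Kd. The assay was run in six technical replicates.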

The parent's light chain CDRs are KSSQSVLYESRNKNSVA, WASTRES, QQYHRLPLS; each variant's own CDRs replace them letter for letter. Values are log10 of the apparent Kd in nM; lower means stronger binding. "ND" marks a missing value. The strain was present, yet no cells mated with the target were sequenced in that replicate, which points to weak or no binding. As a blank, each scFv also met three strains without target: over all light chain designs, 4% of these pairings were detected, typically at 2.64 and seldom below 1.59. Also given: how often the same scFv was detected with the empty control strains, with their mean in brackets. The authors averaged sequences with at least three values out of six and counted those with two or fewer as poor binders. The range of this assay differs from that of the first round, and the authors advise against merging the two.

CDR-L1	CDR-L2	CDR-L3	log10 Kd (nM) by replicate	empty controls
KISMQYRYEQLSKNSIA	EAQTRLK	QQYHRLPLS	ND / 1.01 / 1.03 / 1.12 / ND / ND	0 of 18
MIAYGLRGVGRNKNSVA	NAQTRES	QHYHRLPLS	ND / 2.42 / ND / ND / ND / 2.62	0 of 18
TISQSTYWESFNKNSVA	QTSTREE	QDYDRLPLS	ND / ND / ND / ND / ND / ND	1 of 18 (1.74)
KIGYGLTTESRNKNSVA	QTETRES	QHYHRLPLS	0.83 / 1.00 / 0.56 / 0.47 / 0.75 / 0.87	2 of 18 (2.83)
TLSQSMDMTSRNVNSVA	DLTTRGN	QQYHRLPLS	0.11 / 0.09 / -0.12 / -0.06 / -0.21 / 0.42	0 of 18
KISQMVTYESTWGNAIA	QTSEREE	QQYHRLPLS	ND / ND / ND / ND / ND / ND	0 of 18
KISGYLNKESKNSNSVA	EMVNRES	QQYDRLPLS	1.83 / 1.27 / 0.92 / 1.62 / 1.29 / 2.15	0 of 18
KIGHGLTTEMYNRNSVA	QTETRVQ	QHYHRLPLS	1.03 / 0.65 / 0.94 / 0.40 / 1.69 / 2.06	1 of 18 (3.93)
TLGQSALMESRNKNNVA	QMSTREK	QQYDRLPLS	0.26 / 0.23 / -0.16 / 0.30 / -0.16 / 0.27	0 of 18
NVGQHMLGESRNKNSVA	HQSTRED	QHYHRLPLS	ND / ND / ND / ND / ND / 2.83	0 of 18
MISDLTMYGSRAKNSIA	DLSTRGS	QQYHRLPLS	0.19 / 0.56 / 0.22 / 0.16 / 0.17 / 0.39	0 of 18
TLTQVTMVESYNKNSVA	QASTRLE	QSYHRLPLS	2.23 / 0.57 / 1.06 / 1.23 / 1.43 / 0.86	0 of 18
KLSAATRMESRNKASVA	ENSTRES	QQYFRLPLS	0.24 / 0.46 / 0.47 / 0.36 / 0.09 / 0.31	1 of 18 (1.75)
MMSMGYLGGMRARNNVA	QEETREK	QQYHRLPLI	ND / ND / ND / ND / ND / ND	0 of 18
ILYDHVGTLSRNKNSVA	DNSTRES	QQYDRLPLS	2.33 / ND / 1.57 / 2.02 / 2.60 / 2.79	1 of 18 (2.78)
KLSMSYRYESQVKNSIA	EMSTREE	QSYHRLPLS	0.13 / 0.55 / 0.12 / -0.05 / 0.19 / 0.33	0 of 18
MISDLTMQGSLNKNSVA	DLSTRGS	QQYHRLPLS	0.07 / -0.01 / 0.07 / -0.21 / -0.16 / -0.08	1 of 18 (2.12)
KVSDSAAFLSRNVNSVA	DNSTRGS	QQYHRLPLS	0.65 / 0.76 / 0.87 / 0.82 / 0.57 / 1.10	1 of 18 (2.92)
KISQMSTIEMIMHNSVA	QTSTREN	QQYDRLPLS	1.02 / 0.80 / 1.16 / 0.98 / 0.69 / 1.25	0 of 18
TISQSFLMENQFKNSVA	QATTRES	QCYDRLPLS	0.71 / 0.62 / 0.72 / 0.65 / 0.92 / 0.75	0 of 18
SIYDATRMESRNKNPIA	DVSNRPS	QQYDRLPLS	0.01 / 0.50 / -0.04 / 0.06 / 0.16 / 0.17	1 of 18 (2.44)
MITAGLRGVGRNKNSVA	NAQTRES	QHYHRLPLS	2.40 / 2.67 / 2.57 / 2.80 / 3.65 / 2.44	1 of 18 (3.31)
KLREVQHVETKQKSNVA	DNDTRES	QDYYRLPLS	ND / 2.57 / 2.32 / 2.35 / 1.97 / 2.20	1 of 18 (3.20)
MISDLTMYGSRNVSSVA	DLSTRGS	QQYHRLPLS	0.66 / 0.66 / 0.31 / 0.52 / 0.42 / 0.71	0 of 18
NFSQMVSTGQTLRNSVA	HASTRFN	QQYHRLPLI	ND / 1.71 / 3.06 / 2.09 / 2.66 / 2.13	1 of 18 (2.56)
KLYFNVGTMSHNKQSIA	DMERRED	QQYHRLPLS	0.15 / 0.05 / 0.02 / -0.17 / 0.02 / 0.09	2 of 18 (3.15)
QLYAVNDLTSKESNNVA	EQTTREN	QQYHRLPLS	1.89 / 1.84 / ND / 1.77 / ND / ND	0 of 18
RLSEYSHFESKKKNSVA	ENSTREE	QQYDHLPLS	1.43 / 1.95 / 1.94 / 1.13 / 1.96 / ND	1 of 18 (1.75)
KLRMSTAYLSENKNSVA	ELTTRGS	QQYFRLPLS	1.49 / 3.53 / 1.45 / 1.37 / 1.01 / 1.24	0 of 18
TLGDSTRMESRKKNSIA	DMSTRES	QQYHRLPLS	0.46 / 0.15 / 0.32 / -0.06 / 0.14 / 0.44	1 of 18 (2.35)
KISQSILFMTGNKNAIA	QMEMREE	QQYHRLPLS	0.62 / 0.63 / 0.32 / 0.60 / 0.33 / 0.58	0 of 18
KISGMYQKESKNKNSVA	EMVNREQ	QQYDRLPLS	1.88 / 0.86 / 1.28 / 0.54 / 1.52 / 1.21	0 of 18
KIMQSLNYESFNKNSVA	GQETRGQ	QSYHRLPLS	2.52 / 1.00 / 1.12 / 1.17 / 1.58 / 0.78	1 of 18 (2.55)
KLRQVTGYESYIKNSVA	QTSTRVS	QDYHRLPLS	0.96 / 0.52 / 0.90 / 1.59 / 1.12 / 0.74	1 of 18 (3.25)
MISQSFLIGSRAKNSVA	QTSTRES	QQYDRLPLI	0.12 / -0.09 / 0.01 / -0.03 / -0.18 / 0.13	1 of 18 (2.62)
KIGQQVTYESTNKNAIA	QMTTREE	QQYHRLPLS	0.45 / 0.04 / 0.20 / 0.18 / 0.23 / 0.19	0 of 18
KIGQQVTYESTMKNAIA	QMTTREE	QQYHRLPLS	1.26 / 1.24 / 1.18 / 1.12 / 0.75 / 1.79	0 of 18
KISGMYQKESKNKNSVA	EMVNRAS	QQYDRLPLS	0.76 / 0.76 / 0.98 / 0.52 / 0.94 / 1.01	0 of 18
TITQSMLMTSHNMNSVA	HASTREE	QQYHRLPLI	0.80 / 0.18 / -0.03 / 0.08 / 0.26 / 0.52	1 of 18 (2.77)
KISMYLNKEKKAGNNVA	EMVTREA	QQYDRLPLS	0.86 / 0.86 / 0.69 / 0.78 / 0.72 / 1.15	0 of 18
KFGQMVLTGAYVSNSVA	QMSTRVN	QQYHRLPLI	0.34 / 0.71 / 0.80 / 0.33 / 0.75 / 0.64	0 of 18
KLYFNVGTMSHAKQSIA	DMERRED	QQYHRLPLS	0.70 / 0.93 / 0.51 / 0.32 / 0.42 / 0.57	0 of 18
MISDLMLYGSRNKNPIA	NAETREY	QQYHRLPLE	1.71 / 0.79 / 0.77 / 0.59 / 0.75 / 0.33	0 of 18
KLYQVTGYEMLNKNSVA	QTSTRVN	QDYHRLPLS	1.04 / 0.64 / 0.68 / 0.96 / 0.79 / 0.94	1 of 18 (2.58)
KLLQNVMTEGRKRNNVA	HMDMRED	QQYWRLPLS	2.09 / 1.85 / 1.85 / 1.83 / 1.66 / 1.89	2 of 18 (3.35)
KLSLMYQHTSRNKNNIA	ERSTREE	QQYHHLPLS	ND / ND / 0.77 / 1.22 / 0.61 / 1.25	0 of 18
HISMMVGTKGYNKQSVA	NAETRED	QQYHRLPLS	0.25 / 0.04 / -0.07 / 0.04 / 0.02 / 0.03	1 of 18 (2.75)
KLRQLTHIESFNKNNVA	EMTTREA	QSYDRLPLS	1.59 / 1.75 / 1.65 / 1.14 / 1.12 / 0.93	0 of 18
TISQSWMIESRNKNNVA	EMSTREN	QDYDRLPLS	0.77 / 0.76 / 0.83 / 1.62 / 0.99 / 0.77	1 of 18 (2.38)
TISNSFMMENQFKNSVA	QASTREN	QCYDRLPLS	1.70 / 1.99 / 1.83 / 1.50 / 1.24 / 1.96	0 of 18
QLLMATMGETYNRNSVA	HAETRED	QSYHRLPLS	1.88 / 0.80 / 0.91 / 1.09 / 0.85 / 1.51	0 of 18

Picked from the list: the 5 lowest averages where every replicate gave a value.

{"CDR-L1": "MISDLTMQGSLNKNSVA", "CDR-L2": "DLSTRGS", "CDR-L3": "QQYHRLPLS", "log10 Kd (nM) by replicate": "0.07 / -0.01 / 0.07 / -0.21 / -0.16 / -0.08", "empty controls": "1 of 18 (2.12)"}
{"CDR-L1": "MISQSFLIGSRAKNSVA", "CDR-L2": "QTSTRES", "CDR-L3": "QQYDRLPLI", "log10 Kd (nM) by replicate": "0.12 / -0.09 / 0.01 / -0.03 / -0.18 / 0.13", "empty controls": "1 of 18 (2.62)"}
{"CDR-L1": "KLYFNVGTMSHNKQSIA", "CDR-L2": "DMERRED", "CDR-L3": "QQYHRLPLS", "log10 Kd (nM) by replicate": "0.15 / 0.05 / 0.02 / -0.17 / 0.02 / 0.09", "empty controls": "2 of 18 (3.15)"}
{"CDR-L1": "TLSQSMDMTSRNVNSVA", "CDR-L2": "DLTTRGN", "CDR-L3": "QQYHRLPLS", "log10 Kd (nM) by replicate": "0.11 / 0.09 / -0.12 / -0.06 / -0.21 / 0.42", "empty controls": "0 of 18"}
{"CDR-L1": "HISMMVGTKGYNKQSVA", "CDR-L2": "NAETRED", "CDR-L3": "QQYHRLPLS", "log10 Kd (nM) by replicate": "0.25 / 0.04 / -0.07 / 0.04 / 0.02 / 0.03", "empty controls": "1 of 18 (2.75)"}

Data: MIT Lincoln Laboratory AlphaSeq set, Li et al. 2023, doi:10.1038/s41467-023-39022-2, as distributed in FLAb.